Data from patent US9073833B1, “Oxime-based compound, pharmaceutical composition containing the same and method for preparing the same” (Chang Gung University, priority 2014, dated 2015).

The chains behind the UniProt entries cited, without tags or fusion partners. Residues count along the entry.
UniProt P08246, 30-267: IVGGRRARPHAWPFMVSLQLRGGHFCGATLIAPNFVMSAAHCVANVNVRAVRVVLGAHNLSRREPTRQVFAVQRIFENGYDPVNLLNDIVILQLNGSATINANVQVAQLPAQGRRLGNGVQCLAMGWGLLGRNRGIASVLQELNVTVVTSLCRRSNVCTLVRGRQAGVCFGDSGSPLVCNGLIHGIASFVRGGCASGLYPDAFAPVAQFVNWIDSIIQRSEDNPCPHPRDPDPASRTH

What was measured:
[1] = target: human neutrophil elastase (Homo sapiens (Human), UniProt P08246); assay: Inhibition of human neutrophil elastase activity (MeO-Suc-Ala-Ala-Pro-Val-p-nitroanilide, OD405); assay type: biochemical; conditions: mean ± SEM (n = 3), 30° C., 30 minutes
[2] = tested on: human neutrophil elastase (NE) release, human neutrophils; assay: Release of human neutrophil elastase from FMLP/CB-activated human neutrophils; conditions: read-out: IC50 (release of human neutrophil elastase)

SMILES | IC50 [1] | IC50 [2]
CC(C)(C)C(=O)Oc1ccc(S(=O)(=O)Nc2ccccc2C(=O)NCC(=O)O)cc1 [Sivelestat, reference compound] | 65 ± 4.26 µM | 50 ± 1 nM
C/C(=N\O)c1ccccc1NS(=O)(=O)c1ccc(OC(=O)C(C)(C)C)cc1 [Compound 1, (E)-4-(N-(2-(1(hydroxyimino)ethyl)phenyl)sulfamoyl)phenyl pivalate] | 51.3 ± 7.88 µM | 
